The values below come from PMC3366986, “On the Mechanism of Action of SJ-172550 in Inhibiting the Interaction of MDM4 and p53” (PLoS ONE, 2012).

By UniProt entry, the sequences of proteins in these tests, tags left out. Where a name states a change or a piece, a line headed by the entry shows the natural chain unless it says otherwise. Residues count along the entry.
UniProt O15151, whole entry: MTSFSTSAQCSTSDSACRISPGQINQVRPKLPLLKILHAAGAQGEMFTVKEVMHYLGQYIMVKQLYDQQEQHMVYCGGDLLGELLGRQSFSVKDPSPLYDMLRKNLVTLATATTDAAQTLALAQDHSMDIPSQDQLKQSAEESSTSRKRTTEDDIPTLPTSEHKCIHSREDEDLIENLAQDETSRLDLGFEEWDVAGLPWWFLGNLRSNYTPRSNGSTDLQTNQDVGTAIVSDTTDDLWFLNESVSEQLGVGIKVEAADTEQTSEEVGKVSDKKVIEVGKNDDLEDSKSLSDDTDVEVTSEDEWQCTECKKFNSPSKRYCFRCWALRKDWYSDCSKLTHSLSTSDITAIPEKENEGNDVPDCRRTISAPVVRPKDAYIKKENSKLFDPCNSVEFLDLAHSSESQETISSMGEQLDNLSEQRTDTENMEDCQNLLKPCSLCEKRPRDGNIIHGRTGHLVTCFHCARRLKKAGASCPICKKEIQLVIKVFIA
UniProt Q00987, whole entry: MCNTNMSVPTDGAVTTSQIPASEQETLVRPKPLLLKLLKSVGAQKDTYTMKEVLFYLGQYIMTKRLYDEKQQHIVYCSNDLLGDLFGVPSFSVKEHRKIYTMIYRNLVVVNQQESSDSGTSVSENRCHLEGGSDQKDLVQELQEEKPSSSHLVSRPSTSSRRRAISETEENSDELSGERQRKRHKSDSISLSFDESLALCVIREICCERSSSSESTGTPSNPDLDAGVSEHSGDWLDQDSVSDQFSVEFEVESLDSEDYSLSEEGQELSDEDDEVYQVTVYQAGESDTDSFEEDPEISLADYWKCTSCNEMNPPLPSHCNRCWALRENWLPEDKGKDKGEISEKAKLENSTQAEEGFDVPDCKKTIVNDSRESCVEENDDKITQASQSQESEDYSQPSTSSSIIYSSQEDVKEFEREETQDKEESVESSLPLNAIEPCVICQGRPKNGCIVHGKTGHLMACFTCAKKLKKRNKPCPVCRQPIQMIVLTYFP
UniProt Q00987, 18-125 C77V limits assumed: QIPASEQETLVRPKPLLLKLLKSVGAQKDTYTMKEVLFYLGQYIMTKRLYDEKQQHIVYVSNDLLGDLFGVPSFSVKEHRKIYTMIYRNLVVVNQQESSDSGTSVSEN

In experiment [1] the target is MDMX (Homo sapiens, UniProt O15151). The experiment is described as follows: fluorescence polarization p53 peptide exclusion assay, Mdmx. Particulars: read-out: MdmX Ki; ND = compound does not noticeably block interaction with p53 peptide. In general terms: Fluorescence polarisation rises when a labelled molecule tumbles more slowly, as on binding a larger partner.
The target in experiment [2] is Mdm2 (Homo sapiens, UniProt Q00987). The experiment is described as follows: fluorescence polarization p53 peptide exclusion assay, Mdm2. To be noted: read-out: Mdm2 Ki; ND = compound does not noticeably block interaction with p53 peptide.
In experiment [3] the target is hMDM2(18–125)C77V (Homo sapiens, UniProt Q00987, C77V). The experiment is described as follows: inhibition of p53 peptide binding to MDM2 cysteine mutant. To be noted: C77A mutant of MDM2; Figure S12.

The structures appear in SMILES notation.

What is called Ki is the dissociation constant of the complex between target and ligand, obtained from inhibition or displacement. As to `CCOc1cc(C=C2C(=O)N(c3ccc(Cl)cc3)N=C2C)cc(Cl)c1O`, the Ki came out at 117 µM in experiment [1] and 43.5 µM in experiment [2].
On the same counts, the results for `CCOc1cc(C=C2C(=O)N(c3ccccc3)N=C2C)cc(Cl)c1OCC` are 6.66 µM and 30 µM.
For `CCOc1cc(C=C2C(=O)N(c3cccc(C(F)(F)F)c3)N=C2C)cc(Cl)c1OCC`, in experiment [1], the Ki was found to be 1.6 µM.
Regarding `CCOc1cc(C=C2C(=O)N(c3ccccc3)N=C2C)ccc1OCC(=O)OC`, the inhibitory constant (Ki) in experiment [1] is 47.1 µM; in experiment [2] it was 41.6 µM.
`CCOc1cc(C=C2C(=O)N(c3ccccc3)N=C2C)cc(Cl)c1OC(=O)c1cccs1`: in experiment [1], the Ki worked out at 2.35 µM.
Still for that read-out and setting: the figure for `CCOC(=O)COc1ccc(C=C2C(=O)N(c3cccc(C(F)(F)F)c3)N=C2C)cc1OCC` is 48.9 µM.
Consider `COc1cc(C=C2C(=O)NN(c3cccc(Cl)c3)C2=O)cc(Cl)c1OC`, for which the values for the Ki in experiment [1] and in experiment [2] were 1.76 µM and 1.34 µM, respectively. Moreover, the “sensitivity of mutant in blocking the interaction with p53 peptide” value in experiment [3] is “Reduced sensitivity”.
As to `COC(=O)COc1ccc(C=C2C(=O)N(c3ccccc3)N=C2C)cc1`, the inhibitory constant (Ki) in experiment [1] worked out at 164 µM.
In the case of `CCOc1cc(C=C2C(=O)N(c3cccc(Cl)c3)N=C2C)cc(Cl)c1OCC`, the inhibition constant (Ki) in experiment [1] was found to be 2.46 µM.
As for `COc1cc(C=C2C(=O)NN(c3cccc(Br)c3)C2=O)cc(Br)c1OC(C)=O`, the values for the inhibition constant (Ki) in experiment [1] and in experiment [2] were 0.99 µM and 5.04 µM, respectively.
With `COc1cc(C=C2C(=O)N(c3ccccc3)N=C2C)cc(Cl)c1OCCOc1cc(C)ccc1C`, in experiment [1], the Ki turned out to be 17.7 µM.
Regarding `CCOC(=O)COc1c(Br)cc(C=C2C(=O)N(c3ccccc3)N=C2C)cc1OCC`, the figures for the Ki in experiment [1] and in experiment [2] were 5.25 µM and 2.57 µM, respectively.
For the compound `CCOC(=O)COc1c(Cl)cc(C=C2C(=O)N(c3cc(Cl)ccc3Cl)N=C2C)cc1OC`, in experiment [1], the Ki is 7.24 µM.
Consider `CCOc1cc(C=C2C(=O)N(c3ccccc3)N=C2C)c(Br)cc1OCC(=O)OC`, for which the Ki stood at 36.5 µM in experiment [1] and 33.8 µM in experiment [2].
